## scFv variants of Ab-14 (light chain) against a SARS-CoV-2 spike peptide

Reference: Li et al. 2023, doi:10.1038/s41467-023-39022-2. File: FLAb, binding data.

Target: peptide PDVDLGDISGINAS, taken from heptad repeat 2 (HR2) of SARS-CoV-2 spike.

Parent: Ab-14, a human scFv built as VH, a (GGGGS)3 linker, VL. Only the CDRs of the light chain vary.
VH: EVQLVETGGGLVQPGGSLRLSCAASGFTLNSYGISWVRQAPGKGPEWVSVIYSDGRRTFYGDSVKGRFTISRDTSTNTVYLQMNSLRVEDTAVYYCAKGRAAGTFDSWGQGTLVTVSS
VL: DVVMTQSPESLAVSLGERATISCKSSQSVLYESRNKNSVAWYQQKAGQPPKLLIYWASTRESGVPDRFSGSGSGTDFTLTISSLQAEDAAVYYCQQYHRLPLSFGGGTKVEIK

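Phage display of a naive human antibody library on the peptide gave the parent. Designed CDR sequences, proposed from the first random library and measured here. Several design methods are mixed in this list. The scFvs were displayed on barcoded MATa yeast, the peptide on MATalpha yeast. Mating (16 h, 30 °C) was followed by selection of diploids and sequencing of their barcodes. Each replicate has its own calibration line, from reference interactions of the BCL2 family. The assay was run in six technical replicates.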

Each variant is given by its three light chain CDRs, as the data file delimits them; those of the parent are KSSQSVLYESRNKNSVA, WASTRES, QQYHRLPLS. Variants here have at most six changes. Values are apparent Kd, the geometric mean of the replicates that gave a signal; lower means stronger binding. An entry "no signal" has no value in the source: the pair was not observed among the diploids in any replicate. This suggests poor binding but is not conclusive. Entries are sorted by rising average, undetected variants last. Background: pairings of all light chain designs with three empty control strains gave a value in 4% of cases (median 430 nM, 5th percentile 38 nM). Values in that range, when seen in few replicates, are hard to tell from nonspecific mating.

Variant KASQSWLYESRNKNSVA, GASSRES, QQYHRLPLS gave 140 pM (6 of 6 replicates).
Variant KSSISYGEESRNKNSVA, EASTRES, QQYHRLPLS gave 200 pM (6 of 6 replicates).
Variant KVSQSVLYESRNKNSVA, EASTRES, QQYHRLPLK gave 400 pM (6 of 6 replicates).
Variant KLSQSVLYESRNKNSVA, NASTRMS, QDYHRLPLS gave 400 pM (6 of 6 replicates).
Variant KFSQSVLYESRMKNSVA, NAVTRET, QQYHRLPLS gave 440 pM (6 of 6 replicates).
Variant KLSQSWLYESRNKNSVA, NASKRES, QQYHRLPLS gave 440 pM (6 of 6 replicates).
Variant KVEQGVLYESRNKGSVA, GASVRES, QQYHRLPLS gave 440 pM (6 of 6 replicates).
Variant KVQQSWLYESRNKNSVA, DASTRES, QQYHRLPLS gave 450 pM (6 of 6 replicates).
Variant KSGIGVLYESRNKNSVA, GASTRES, QQYHRLPLS gave 540 pM (6 of 6 replicates).
Variant KLEQSQLYESRNKNSVA, QASTRES, QQYHRLPLS gave 580 pM (6 of 6 replicates).
Variant KLSQSFLYESRNKNSVA, NASTRMS, QQYHRLPLS gave 590 pM (6 of 6 replicates).
Variant KCSQSWLYESRNKNSVA, NASQRES, QQYHRLPLS gave 690 pM (6 of 6 replicates).
Variant KLSPSVLYESQEKNSVA, DASTREK, QQYHRLPLS gave 730 pM (6 of 6 replicates).
Variant KSSQSVPYESRNKNSVA, EASTRCS, QQYHRLPLS gave 750 pM (6 of 6 replicates).
Variant KLSQSVLYESRNKNSVA, NASTRAS, QQYHRLPLS gave 780 pM (6 of 6 replicates).
Variant KLSQLMLYESRMKNSVA, NASTRGS, QQYHRLPLS gave 830 pM (6 of 6 replicates).
Variant KSSMSDLYESRNKNSVA, GASTRES, QQYHRLPLS gave 880 pM (6 of 6 replicates).
Variant KLQQSVLYESRNKNSVA, EASTRMS, QQYHRLPLS gave 960 pM (6 of 6 replicates).
Variant KQSPSVLYESRNKNSVA, NGSTREV, QQYHRLPLS gave 1.0 nM (6 of 6 replicates).
Variant KLEQSWDYESRNKNSVA, NASTRES, QQYHRLPLS gave 1.1 nM (6 of 6 replicates).
Variant KVSQSVLYESRNKNSVA, MASTRES, QQYHRLPLS gave 1.3 nM (6 of 6 replicates).
Variant KLSQSFLYESRNKNSVA, NASQRLS, QQYHRLPLS gave 1.5 nM (6 of 6 replicates).
Variant KSPQSVLYESRNKNSVA, HASTRED, QSYHRLPLS gave 1.5 nM (6 of 6 replicates).
Variant KFSQWVLYESRTGNSVA, NASTRES, QQYHRLPLS gave 1.5 nM (6 of 6 replicates).
Variant KMSQSVLYESRNKNDVA, AASTRES, QQYHRLPLS gave 1.5 nM (6 of 6 replicates).
Variant ESSQSVLYFSRNKNSVA, GASTRES, YQYHRLPLS gave 1.8 nM (4 of 6 replicates).
Variant KSSMSVLYESRNKNSVA, GASTRES, QQYHRLPLS gave 1.9 nM (6 of 6 replicates).
Variant KSGQGVLYESRNTNSVA, GASTRES, QQYHRLPLS gave 2.0 nM (6 of 6 replicates).
Variant KSSQVFLYESRNKNSVA, GASTRES, QQYHRLPLS gave 2.1 nM (6 of 6 replicates).
Variant KSAYSELYESANKNSVA, SASTRSS, QQYHRLPLS gave 2.1 nM (6 of 6 replicates).
Variant KFSQSVLYESRNKNSVA, YASTRES, QQYHRLPLS gave 2.6 nM (6 of 6 replicates).
Variant KVLQSVEYEGRNKNSVA, HASTRED, QQYHRLPLS gave 2.7 nM (6 of 6 replicates).
Variant KSSQSVAMESRNANSVA, HASTRES, QQYHRLPLS gave 2.9 nM (6 of 6 replicates).
Variant KVRQSTLYESRNKNSVA, WASTRES, QQYHQLPLS gave 2.9 nM (6 of 6 replicates).
Variant KLSQSTLYESRNPNSVA, NASTRES, QQYHRLPLS gave 3.0 nM (6 of 6 replicates).
Variant KSSQSVLYESTNKNSVA, QASTRES, QTYHRLPLS gave 3.9 nM (6 of 6 replicates).
Variant KLFQSVLYESRNKNSVA, NASTRES, QQYHRLPLS gave 6.3 nM (6 of 6 replicates).
Variant KSSQSVLDESRNKNSVA, WASTREE, VQYHHYPLS gave 7.6 nM (5 of 6 replicates).
Variant KFSQSVLYESRNKKSVA, WGSTRES, QQYHRLPLS gave 8.8 nM (6 of 6 replicates).
Variant KCSQSVLYESRNKNSVA, QASTRES, CQYHRLPLS gave 11 nM (6 of 6 replicates).
Variant KCSQSNLYESRNKNSVA, WASTRES, QQVHRLPLM gave 53 nM (5 of 6 replicates).
Variant KSSQSVSYESRNKNSVA, WAMTRES, QQYHRLPLS gave 54 nM (1 of 6 replicates).
Variant KSSQSVIYESRNKNSVA, MASKRES, QQYHRLPLS gave 56 nM (5 of 6 replicates).
Variant KSNQSDLYESRNKNSVA, WASTRES, QQYHRLPLS gave 150 nM (6 of 6 replicates).
Variant KSSQSVLYESRNKNSVA, WASTRES, QQYARLPLS gave 150 nM (5 of 6 replicates).
Variant KCSQSVLYESRNVNSVA, WASTRES, QQYHRLPLS gave 350 nM (5 of 6 replicates).
Variant KSSQSVLYESRNKNSVA, WASTRES, QQYHRLHLS gave no signal (0 of 6 replicates).
Variant KSSQAVLYESRNKNSVA, WASTRES, QQYHRLPLT gave no signal (0 of 6 replicates).
Variant KSSQSVLYEFRNKNSVA, WASTRES, QQVFRLPLS gave no signal (0 of 6 replicates).
Variant RSSQSVLYTHRNKQSVA, WASTRES, QQYHRLPLS gave no signal (0 of 6 replicates).
Variant KSSQSVLGESRNKNSVA, KASTRES, QTCHRLPLS gave no signal (0 of 6 replicates).

The 7 strongest on average among those seen in every replicate, once more:

{"CDR-L1": "KASQSWLYESRNKNSVA", "CDR-L2": "GASSRES", "CDR-L3": "QQYHRLPLS", "Kd": "140 pM", "replicates with signal": "6/6"}
{"CDR-L1": "KSSISYGEESRNKNSVA", "CDR-L2": "EASTRES", "CDR-L3": "QQYHRLPLS", "Kd": "200 pM", "replicates with signal": "6/6"}
{"CDR-L1": "KVSQSVLYESRNKNSVA", "CDR-L2": "EASTRES", "CDR-L3": "QQYHRLPLK", "Kd": "400 pM", "replicates with signal": "6/6"}
{"CDR-L1": "KLSQSVLYESRNKNSVA", "CDR-L2": "NASTRMS", "CDR-L3": "QDYHRLPLS", "Kd": "400 pM", "replicates with signal": "6/6"}
{"CDR-L1": "KFSQSVLYESRMKNSVA", "CDR-L2": "NAVTRET", "CDR-L3": "QQYHRLPLS", "Kd": "440 pM", "replicates with signal": "6/6"}
{"CDR-L1": "KLSQSWLYESRNKNSVA", "CDR-L2": "NASKRES", "CDR-L3": "QQYHRLPLS", "Kd": "440 pM", "replicates with signal": "6/6"}
{"CDR-L1": "KVEQGVLYESRNKGSVA", "CDR-L2": "GASVRES", "CDR-L3": "QQYHRLPLS", "Kd": "440 pM", "replicates with signal": "6/6"}

A sequence measured in both rounds can read differently, since the two assays cover different ranges. In the paper, a design with two or fewer of six values counts as a poor binder.